{"source": "ChEMBL document CHEMBL1138095", "about": "“From ligand to complexes: inhibition of human immunodeficiency virus type 1 integrase by beta-diketo acid metal complexes” (J Med Chem, 2006)", "key": {"[1]": {"target": "T1, Human immunodeficiency virus type 1 integrase (Human immunodeficiency virus 1, UniProt Q7ZJM1)", "assay": "Inhibition of HIV1 integrase 3' processing activity in presence of exogenous cobalt ion"}, "[2]": {"target": "T1, Human immunodeficiency virus type 1 integrase", "assay": "Inhibition of HIV1 integrase strand transfer activity in presence of exogenous cobalt ion"}, "[3]": {"target": "T1, Human immunodeficiency virus type 1 integrase", "assay": "Inhibition of HIV1 integrase strand transfer activity"}, "[4]": {"target": "T1, Human immunodeficiency virus type 1 integrase", "assay": "Inhibition of HIV1 integrase 3' processing activity"}}}
{"molecule": "O=C(O)C(=O)/C=C(\\O)c1ccccc1", "values": [{"measurement": "IC50", "setting": "[1]", "value": 82, "unit": "µM"}, {"measurement": "IC50", "setting": "[2]", "value": 80, "unit": "µM"}, {"measurement": "IC50", "setting": "[3]", "value": 69, "unit": "µM"}, {"measurement": "IC50", "setting": "[4]", "value": "> 333", "unit": "µM"}]}
